Source: patent US11236094B2, “Substituted pyrrolo[2,1-f][1,2,4]triazines as FGFR inhibitors” (CSPC ZHONGQI PHARMACEUTICAL TECHNOLOGY (SHIJIAZHUANG) CO., …, priority 2017, dated 2022)

Assay: Pharmacokinetics in mice in vivo
Settings: Balb/c mice, intravenous injection (3 npk)

Area under the curve, AUC: 5.073 µM·h
Clearance rate: 22.7 mL/min/kg
Half-life T1/2: 1.09 h
SMILES: C=CC(=O)N1CCC(c2cc(-c3cc4cc(C)cc(OC)c4s3)c3c(N)ncnn23)C1 (stereo not drawn) [Example 1]
